Experimental data: US20070292967A1, “Assay for Ligands of the Ecdysone Receptor” (COMMONWEALTH SCIENTIFIC AND INDUSTRIAL RESEARCH OR, priority 2003, published 2007)

Molecular target: T1, non-recombinant (full-length) ecdysone receptor in L. cuprina embryo extracts (Lucilia cuprina, UniProt O18531)
T1 construct: identical to that for the non-recombinant (full-length) ecdysone receptor; from tissue; host or cells: Lucilia cuprina embryo extracts
T1 sequence (O18531 1-757): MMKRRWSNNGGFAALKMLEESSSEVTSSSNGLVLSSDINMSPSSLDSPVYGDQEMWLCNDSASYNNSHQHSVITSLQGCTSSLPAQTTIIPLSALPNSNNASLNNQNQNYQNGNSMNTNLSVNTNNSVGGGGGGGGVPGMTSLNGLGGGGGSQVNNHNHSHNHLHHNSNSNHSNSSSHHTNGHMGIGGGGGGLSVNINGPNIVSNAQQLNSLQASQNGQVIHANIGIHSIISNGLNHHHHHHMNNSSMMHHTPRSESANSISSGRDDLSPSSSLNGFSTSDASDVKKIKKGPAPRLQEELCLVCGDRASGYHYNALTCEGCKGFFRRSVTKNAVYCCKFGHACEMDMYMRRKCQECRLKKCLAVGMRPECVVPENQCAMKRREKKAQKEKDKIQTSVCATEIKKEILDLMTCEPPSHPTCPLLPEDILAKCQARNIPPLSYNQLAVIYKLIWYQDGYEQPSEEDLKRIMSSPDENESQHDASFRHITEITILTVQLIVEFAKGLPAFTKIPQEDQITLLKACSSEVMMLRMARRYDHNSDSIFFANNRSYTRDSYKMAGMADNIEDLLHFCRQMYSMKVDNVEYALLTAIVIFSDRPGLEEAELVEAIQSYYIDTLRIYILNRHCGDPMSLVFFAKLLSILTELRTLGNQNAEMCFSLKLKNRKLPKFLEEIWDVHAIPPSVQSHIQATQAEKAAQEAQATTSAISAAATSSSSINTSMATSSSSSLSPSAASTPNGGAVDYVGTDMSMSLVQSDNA
Assay: equilibrium binding of [3H]ponasterone A, L. cuprina embryo extracts
Experimental: For each recombinant receptor LBD heterodimer, equilibrium binding experiments were performed in which different concentrations of [^3H]ponasterone A (typically 0.1-4.0 nM bindable radioligand) were incubated with a low fixed concentration of the LBD heterodimer, and receptor-radioligand binding was determined essentially as described below (viz. the manual procedure for MpLBD in ‘METHODS—Testing fluorescent and reference ecdysteroids as ligands using a radioligand-based assay’, performed in a total volume of 154 μl but with no competitor ligand present). Since the condition [[3H]ponA]bound<[[3H]ponA]total/10 was observed, ligand depletion was avoided and plots of bound vs. free [3H]ponasterone A concentrations were able to be fitted directly to the Langmuir isotherm (Hulme & Birdsall, 1992) [[3H]ponA]bound=[[3H]ponA]free−[LBD]tot/([Kd+[[3H]ponA]free) where [[3H]ponA]total is the total concentration of bindable [^3H]ponasterone A in the assay, [[^3H]ponA]free is the concentration of free bindable [^3H]ponasterone A in the assay, [[3H]ponA]bound is the concentration of bound [^3H]ponasterone A, [LBD]tot is the total concentration of functional recombinant receptor LBD heterodimer, and Kd is the dissociation constant for [^3H]ponasterone A with that receptor under the conditions of the assay. […]

## [24,25,26,27-^3H(N)]ponasterone A [[^3H]ponasterone A]
  Kd: 0.92 ± 0.1 nM
